Source: patent US4789683A, “Benzamido-derivatives” (priority 1981, dated 1988)

Sequences of proteins named here, by UniProt entry; tags and fusion partners are left off.
UniProt P61169, whole entry: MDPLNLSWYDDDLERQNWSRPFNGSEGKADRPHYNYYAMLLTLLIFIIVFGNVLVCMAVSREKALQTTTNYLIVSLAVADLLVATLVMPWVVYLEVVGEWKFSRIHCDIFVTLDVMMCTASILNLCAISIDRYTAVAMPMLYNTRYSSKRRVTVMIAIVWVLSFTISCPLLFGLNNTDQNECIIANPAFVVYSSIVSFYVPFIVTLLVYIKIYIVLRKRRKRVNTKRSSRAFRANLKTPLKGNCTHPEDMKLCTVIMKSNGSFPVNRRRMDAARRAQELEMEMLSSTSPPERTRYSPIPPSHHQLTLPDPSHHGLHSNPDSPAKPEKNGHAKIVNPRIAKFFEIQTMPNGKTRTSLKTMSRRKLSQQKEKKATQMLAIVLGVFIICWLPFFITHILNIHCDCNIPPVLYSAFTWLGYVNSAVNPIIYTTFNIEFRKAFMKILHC

Biological target: DA receptors in the brain (Rattus norvegicus, UniProt P61169)
Assay: Block of apomorphine-induced stereotypies in the rat (0-3 scale)
Conditions: po, read-out: potency to block apomorphine, ED50 Stereotypies

With `CCN1CCCC1CNC(=O)c1cc(S(N)(=O)=O)ccc1OC` (stereo not shown) [Sulpiride, reference compound] the ED50 was greater than 586 µmol/kg.
